Assay: Measurement of molar absorption coefficients ε365, ε313 and ε365/ε313 in acetonitrile
Type: physicochemical
Conditions: molar absorption coefficient to light of 365 nm in acetonitrile

| ε365 of Compound β | SMILES |
| --- | --- |
| <10 (cm mol/L)^−1 | c1ccc2ncccc2c1 [Example B2, quinoline] |
| <10 (cm mol/L)^−1 | CCCCc1nccc2ccccc12 [Example 1-n-Butylisoquinoline, 1-n-Butylisoquinoline] |
| <10 (cm mol/L)^−1 | c1ccc2cnccc2c1 [Example B1, isoquinoline] |
| <10 (cm mol/L)^−1 | Cc1cc(C)c2c(C)cc(C)nc2c1 [2,4,5,7-Tetramethylquinoline] |
| <10 (cm mol/L)^−1 | Cc1cc(C)c2ccccc2n1 [Example B12, 2,4-dimethylquinoline] |
| 4900 (cm mol/L)^−1 | c1ccc2nc3ccccc3cc2c1 [Example B3, acridine] |
| >10000 (cm mol/L)^−1 | c1ccc(-c2c3ccccc3nc3ccccc23)cc1 [Example 9-Phenylacridine, 9-Phenylacridine] |
| 6300 (cm mol/L)^−1 | Cc1c2ccccc2nc2ccccc12 [Example 9-Methylacridine, 9-Methylacridine] |
| <10 (cm mol/L)^−1 | COc1cc(C)nc2ccccc12 [Example 2-Methyl-4-methoxyquinoline, 2-Methyl-4-methoxyquinoline] |
| <10 (cm mol/L)^−1 | Cc1nccc2ccccc12 [Example B6, 1-Me-isoquinoline] |
| <10 (cm mol/L)^−1 | CCCCc1ncc(C)c2ccccc12 [Example 1-n-Butyl-4-methylisoquinoline, 1-n-Butyl-4-methylisoquinoline] |

| SMILES | ε365 of Compound β |
| --- | --- |
| Clc1ccccn1 [Example 2-Chloropyridine, 2-Chloropyridine] | <10 (cm mol/L)^−1 |
| c1ccncc1 [Example B11, pyridine] | <10 (cm mol/L)^−1 |
| Nc1ccncc1 [Example 4-Aminopyridine, 4-Aminopyridine] | <100 (cm mol/L)^−1 |
